## Measured affinities in a library of Ab-14 heavy chain variants

From the AlphaSeq antibody data of Engelhart et al. 2022 (doi:10.1038/s41597-022-01779-4), copy in the FLAb collection.

Target peptide (SARS-CoV-2 spike, HR2 region): PDVDLGDISGINAS

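The starting antibody came from a phage panning campaign against this peptide. In library AAYL49, one, two or three CDR residues were substituted; doubles and triples were drawn at random. Affinity was read by AlphaSeq, a pooled yeast mating assay with surface-displayed partners. Binding brings cells together so that they mate, and sequencing counts the barcode pairs among the diploids. Scores were corrected for input abundance and mapped to Kd with protein pairs of known affinity run in the same pool. The assay was run in three technical replicates.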

Each scFv is VH, three GGGGS repeats, VL, as in the parent Ab-14, and differs from it in the CDRs of the heavy chain only.
VH: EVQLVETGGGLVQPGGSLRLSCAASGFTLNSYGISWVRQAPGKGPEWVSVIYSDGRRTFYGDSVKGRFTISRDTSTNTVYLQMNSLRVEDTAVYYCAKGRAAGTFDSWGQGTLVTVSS
VL: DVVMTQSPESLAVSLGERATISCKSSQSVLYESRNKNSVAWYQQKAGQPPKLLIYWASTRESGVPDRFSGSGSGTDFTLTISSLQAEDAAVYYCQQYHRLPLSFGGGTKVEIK

Changes read parent residue, position, new residue, counted from the first residue of the VH shown. Numbers give log10(Kd / nM), so 0 is 1 nM and 3 is 1 µM. Smaller is tighter. An entry "n.d." has no value in the source: the pair was not observed among the diploids in that replicate. This suggests poor binding but is not conclusive. For reference, the parent read 0.65 as the reference entry and 4.11 (one replicate of three) as a member of this library.

{"changes": "F59Y S107V", "log10 Kd (nM) by replicate": "n.d. / n.d. / n.d.", "signal with controls": "0/9"}
{"changes": "L29M Y60D K65D", "log10 Kd (nM) by replicate": "n.d. / 3.66 / 4.93", "signal with controls": "3/9 (5.45)"}
{"changes": "S35N F105M D106C", "log10 Kd (nM) by replicate": "n.d. / n.d. / n.d.", "signal with controls": "1/9 (3.48)"}
{"changes": "L29Q N30T Y60P", "log10 Kd (nM) by replicate": "n.d. / n.d. / 4.60", "signal with controls": "0/9"}
{"changes": "L29W G33K G99A", "log10 Kd (nM) by replicate": "n.d. / n.d. / n.d.", "signal with controls": "0/9"}
{"changes": "Y52V R57D D106T", "log10 Kd (nM) by replicate": "n.d. / n.d. / n.d.", "signal with controls": "3/9 (3.68)"}
{"changes": "V50G G61L G99C", "log10 Kd (nM) by replicate": "n.d. / 4.04 / n.d.", "signal with controls": "1/9 (4.84)"}
{"changes": "S31R Y52A A101N", "log10 Kd (nM) by replicate": "n.d. / n.d. / n.d.", "signal with controls": "0/9"}
{"changes": "R56M R57Y A102K", "log10 Kd (nM) by replicate": "n.d. / n.d. / n.d.", "signal with controls": "1/9 (3.07)"}
{"changes": "R56P S63A T104V", "log10 Kd (nM) by replicate": "n.d. / n.d. / n.d.", "signal with controls": "2/9 (4.00)"}
{"changes": "R56Y G61D D106W", "log10 Kd (nM) by replicate": "1.13 / 1.26 / 1.64", "signal with controls": "0/9"}
{"changes": "G33L S35W T104D", "log10 Kd (nM) by replicate": "4.32 / n.d. / 5.99", "signal with controls": "4/9 (4.59)"}
{"changes": "L29R S31I R57S", "log10 Kd (nM) by replicate": "n.d. / n.d. / n.d.", "signal with controls": "0/9"}
{"changes": "G55I A102K T104N", "log10 Kd (nM) by replicate": "n.d. / n.d. / 4.79", "signal with controls": "2/9 (4.16)"}
{"changes": "S35L S63I G103H", "log10 Kd (nM) by replicate": "5.69 / 3.74 / 5.59", "signal with controls": "3/9 (4.03)"}
{"changes": "T58P S63C V64I", "log10 Kd (nM) by replicate": "n.d. / n.d. / n.d.", "signal with controls": "0/9"}
{"changes": "T28L G61Y G99T", "log10 Kd (nM) by replicate": "n.d. / n.d. / 4.25", "signal with controls": "2/9 (4.22)"}
{"changes": "L29V Y32R T104D", "log10 Kd (nM) by replicate": "3.62 / n.d. / n.d.", "signal with controls": "0/9"}
{"changes": "L29Y Y32H T58K", "log10 Kd (nM) by replicate": "4.50 / 4.45 / n.d.", "signal with controls": "1/9 (3.51)"}

Excerpt, the final 2 entries:

changes,log10 Kd (nM) by replicate,signal with controls
L29V Y32R T104D,3.62 / n.d. / n.d.,0/9
L29Y Y32H T58K,4.50 / 4.45 / n.d.,1/9 (3.51)

Three control strains display no target. For library AAYL49, 15% of the pairings with them gave a signal, with a median of 4.06 and one signal in twenty below 2.83, so weak values seen in few replicates may be background. The control count says in how many pairings with the empty strains this scFv gave a signal, with their mean in brackets.